Thermal shift relative to vanadate control data for one compound are collected here from PubChem BioAssay AID540329 (Sanford-Burnham Center for Chemical Genomics, 2011).

Protein sequences, listed by entry. Tags and fused reporters are not part of them. Lines headed by an entry give the natural chain unless they say otherwise; changes in a name come on top.
UniProt Q9GZU7: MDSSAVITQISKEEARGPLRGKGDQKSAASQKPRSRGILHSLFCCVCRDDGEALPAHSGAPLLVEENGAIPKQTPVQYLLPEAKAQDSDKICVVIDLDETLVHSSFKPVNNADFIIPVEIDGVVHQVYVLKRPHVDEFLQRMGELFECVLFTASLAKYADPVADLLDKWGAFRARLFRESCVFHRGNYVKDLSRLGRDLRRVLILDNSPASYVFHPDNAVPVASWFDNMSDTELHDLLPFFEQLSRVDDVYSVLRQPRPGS

Only a part is listed here, and it is no random draw. The source made the active and inactive calls.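 Rule for the calls: active = substances whose mean melting-temperature shift, as a percentage of the reference inhibitor's shift, reaches about 5.3% (limit read from the data); inactive = the rest.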

In this test the target is Carboxy-terminal domain RNA polymerase II polypeptide A small phosphatase 1 (Homo sapiens) (UniProt Q9GZU7). Put plainly: Scp-1 binding by thermal shift, confirmation, orthogonal assay for Scp-1 inhibitor project, biophysical, differential scanning fluorimetry (AID 540329).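 Note: 0% = Tm of DMSO wells and 100% = Tm with sodium orthovanadate.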 The settings on record: Recombinant SCP1, Sypro Orange thermal shift Tm; at 40 µM; hits give high values. The gist of the method: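 material = Scp-1 phosphatase domain | quantity = Scp-1 protein added from a 10 µM stock solution | timing = 20-95 °C thermal ramp | detection = differential scanning fluorimetry | measure = compound-induced change in Scp-1 melting temperature, scaled to vanadate | controls = vanadate reference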
`Nc1cccc2ccc([As](=O)(O)O)cc12`: the thermal shift relative to vanadate control is inactive: 3.81%.
